The target in this test is ABCB1 (Homo sapiens, UniProt P08183). The experiment in a line: JC-1 efflux HyperCyt flow cytometry assay (ABCB1 reversal).

Amino acid sequences for entries named in this document (tags omitted).
UniProt P08183, whole entry: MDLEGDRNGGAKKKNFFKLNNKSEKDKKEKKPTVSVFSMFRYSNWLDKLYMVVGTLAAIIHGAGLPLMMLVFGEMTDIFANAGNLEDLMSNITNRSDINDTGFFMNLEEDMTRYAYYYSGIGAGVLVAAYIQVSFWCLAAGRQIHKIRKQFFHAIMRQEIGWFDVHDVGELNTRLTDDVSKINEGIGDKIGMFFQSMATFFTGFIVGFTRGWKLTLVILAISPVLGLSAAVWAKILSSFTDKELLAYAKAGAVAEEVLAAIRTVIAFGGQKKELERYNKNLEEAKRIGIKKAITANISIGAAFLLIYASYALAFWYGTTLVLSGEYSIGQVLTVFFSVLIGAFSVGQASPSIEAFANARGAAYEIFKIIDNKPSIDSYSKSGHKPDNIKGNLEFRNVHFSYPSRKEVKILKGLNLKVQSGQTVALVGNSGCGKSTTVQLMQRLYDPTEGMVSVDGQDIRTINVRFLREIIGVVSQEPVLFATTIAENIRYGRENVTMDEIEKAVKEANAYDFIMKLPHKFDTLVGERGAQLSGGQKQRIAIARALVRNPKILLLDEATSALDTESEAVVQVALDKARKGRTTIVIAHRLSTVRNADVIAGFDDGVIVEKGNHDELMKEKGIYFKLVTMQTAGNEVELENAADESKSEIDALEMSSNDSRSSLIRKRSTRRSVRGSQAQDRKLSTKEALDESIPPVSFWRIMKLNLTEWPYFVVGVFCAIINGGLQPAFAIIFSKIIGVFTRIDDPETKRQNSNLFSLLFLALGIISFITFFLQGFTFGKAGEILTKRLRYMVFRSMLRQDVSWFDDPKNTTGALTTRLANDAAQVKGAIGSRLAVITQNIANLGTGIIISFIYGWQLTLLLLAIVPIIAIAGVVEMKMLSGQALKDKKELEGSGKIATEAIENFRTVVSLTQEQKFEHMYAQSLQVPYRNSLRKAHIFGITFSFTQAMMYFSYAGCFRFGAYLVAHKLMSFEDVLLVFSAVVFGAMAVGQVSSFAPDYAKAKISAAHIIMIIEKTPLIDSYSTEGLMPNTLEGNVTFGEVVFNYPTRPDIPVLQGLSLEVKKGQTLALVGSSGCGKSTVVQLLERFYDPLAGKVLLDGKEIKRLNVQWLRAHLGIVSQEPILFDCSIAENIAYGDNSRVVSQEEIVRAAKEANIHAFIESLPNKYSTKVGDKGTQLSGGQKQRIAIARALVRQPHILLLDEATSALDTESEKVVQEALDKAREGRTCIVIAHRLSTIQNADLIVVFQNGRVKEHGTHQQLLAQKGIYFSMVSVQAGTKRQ

One may read the IC50 as the concentration needed to halve the response being measured.

Where a name gives a salt, the structure may show the parent alone.

As to `COC(=O)C1=C(C)NC(C)=C(C(=O)OCCN(C)Cc2ccccc2)C1c1cccc([N+](=O)[O-])c1` (stereo not shown) [Nicardipine HCL, nicardipine], the IC50 amounted to 760 ± 180 nM.
